# Values quoted from earlier work, collected in US20060172006A1, “Sustained-release tramadol formulations with 24-hour clinical efficacy” (priority 2003, published 2006).
# Protein sequences, listed by entry. Tags and fused reporters are not part of them.
# UniProt P35372, whole entry, species assumed: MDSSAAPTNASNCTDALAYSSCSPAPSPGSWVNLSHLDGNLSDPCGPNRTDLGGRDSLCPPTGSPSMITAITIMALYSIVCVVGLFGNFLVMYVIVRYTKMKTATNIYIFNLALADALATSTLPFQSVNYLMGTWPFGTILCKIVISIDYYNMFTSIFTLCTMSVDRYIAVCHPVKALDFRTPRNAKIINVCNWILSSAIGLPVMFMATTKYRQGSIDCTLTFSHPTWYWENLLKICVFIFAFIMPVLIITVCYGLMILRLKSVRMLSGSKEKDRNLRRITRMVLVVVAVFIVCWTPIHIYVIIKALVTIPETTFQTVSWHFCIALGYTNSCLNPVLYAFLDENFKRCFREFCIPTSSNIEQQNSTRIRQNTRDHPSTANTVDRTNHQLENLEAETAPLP
# Molecular target: μ-opioid receptor (Homo sapiens, UniProt P35372)
# Conditions: higher affinity than racemic tramadol
smiles,measurement,value
"CN(C)C[C@H]1CCCC[C@]1(O)c1cccc(O)c1 [mono-O-desmethyltramadol (M1), mono-O-desmethyltramadol]",Affinity for the μ-opioid receptor relative to racemic tramadol,~200 fold
